pIC50: −log10 of the molar value.
Molecular target: Cytochrome P450 2C9 (Homo sapiens, UniProt P11712)
Test: Inhibition of recombinant human CYP2C9 by P450-Glo luminescence assay
Format: ADME

Protein sequences, listed by entry. Tags and fused reporters are not part of them.
UniProt P11712, whole entry: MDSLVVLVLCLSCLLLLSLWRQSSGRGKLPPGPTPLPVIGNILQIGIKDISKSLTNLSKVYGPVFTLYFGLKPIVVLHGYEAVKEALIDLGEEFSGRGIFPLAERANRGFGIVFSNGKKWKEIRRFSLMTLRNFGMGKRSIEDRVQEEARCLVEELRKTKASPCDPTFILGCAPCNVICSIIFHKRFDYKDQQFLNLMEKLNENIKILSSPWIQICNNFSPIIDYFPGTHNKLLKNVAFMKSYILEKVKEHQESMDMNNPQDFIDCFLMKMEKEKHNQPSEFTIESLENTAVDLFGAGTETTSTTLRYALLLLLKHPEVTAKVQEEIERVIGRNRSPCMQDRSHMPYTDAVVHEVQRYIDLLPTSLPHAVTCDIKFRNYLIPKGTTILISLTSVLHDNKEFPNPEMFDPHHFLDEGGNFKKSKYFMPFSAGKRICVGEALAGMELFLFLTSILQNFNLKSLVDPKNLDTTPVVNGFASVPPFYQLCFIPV

Structure (SMILES): OC(Cn1cncn1)(Cn1cncn1)c1ccc(F)cc1F [FLUCONAZOLE]
- pIC50: 5.04
